The record followed here is PubChem BioAssay AID2546 (National Center for Advancing Translational Sciences (NCATS), 2010).

The entries are a selection whose mix differs from that of the whole data set. Inconclusive results are not listed. A call without a number means that no potency is given here. Activity calls are given as the source filed them. Calls follow the shape of the dose curve; as a rule, active = well fitted inhibition curve with a large enough effect; inconclusive = small, poorly fitted or top-dose-only effect, or effect the other way; inactive = flat fitted curve, though single readings scatter.
Potency is read from the fitted curve at half-maximal effect.

The nature of the assay: VP16 counterscreen qHTS for inhibitors of ROR gamma transcriptional activity.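 Also: Gal4-VP16 expression switched on by copper sulfate through the metallothionein promoter; nearly all actives have a fitted effect of over 50% in size.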 The conditions noted are these: Drosophila S2 Gal4-VP16 UAS-luciferase, luminescence, 20 h; series mostly up to 53.6 µM.
In the case of `Cc1cc(C)cc(OP(C)(=O)Nc2cccc(C(F)(F)F)c2)c1` (stereo not drawn), the activity, negative = inhibition entry was “inactive”.

For the compound `COc1ccc(OP(C)(=O)Nc2ccccc2Br)cc1` (stereo not drawn), the activity, negative = inhibition result is “inactive”.

For the compound `COc1ccccc1OP(C)(=O)Nc1ccc(C)c(C)c1` (stereo not drawn), the activity, negative = inhibition entry is “inactive”.

In the case of `CP(=O)(Nc1ccc(Cl)cc1Cl)Oc1ccccc1` (stereo not drawn), the activity, negative = inhibition result was “inactive”.

For `CP(=O)(OCCOc1ccccc1)OCCOc1ccccc1`, the activity, negative = inhibition entry is “inactive”.

In the case of `COc1ccccc1OP(C)(=O)Nc1ccc(Br)cc1` (stereo not drawn), the activity, negative = inhibition entry was “inactive”.

Take `CN(C)CCOC(=O)C(O)(c1ccccc1)C1CCCC1` (stereo not drawn): the activity, negative = inhibition result was “inactive”.

Regarding `COc1ccc(OP(C)(=O)Nc2ccccn2)cc1` (stereo not drawn), the activity, negative = inhibition result was “inactive”.

For the compound `Cc1c(NP(C)(=O)Oc2ccc(C(C)C)cc2)c(=O)n(-c2ccccc2)n1C` (stereo not drawn), the activity, negative = inhibition entry is “inactive”.

On to `CCc1ccc(OP(C)(=O)O)cc1`, for which the activity, negative = inhibition result is “inactive”.

Turning to `COc1ccccc1OP(C)(=O)Nc1ccc(C)cc1C` (stereo not drawn), the activity, negative = inhibition result was “inactive”.

As to `COc1ccc(OP(C)(=O)Nc2ccc(Br)cc2)cc1` (stereo not drawn), the activity, negative = inhibition result is “inactive”.

`CCN(CC)CC(O)COC(=O)C(O)(c1ccccc1)C1CCCCC1` (stereo not drawn): the activity, negative = inhibition entry was “inactive”.

As to `CCc1ccc(OP(C)(=O)Nc2cccnc2)cc1` (stereo not drawn), the activity, negative = inhibition result is “inactive”.

With `CP(=O)(Oc1ccccc1)N1CCOC1=O` (stereo not drawn), the activity, negative = inhibition result was “inactive”.

`OCCSCCO`: the activity, negative = inhibition result was “inactive”.

Turning to `O=C(OCCCN1CCCC1)C(O)(c1ccccc1)C1CCCCC1` (stereo not drawn), the activity, negative = inhibition entry is “inactive”.

On to `COc1ccccc1OP(C)(=O)Nc1c(C)n(C)n(-c2ccccc2)c1=O` (stereo not drawn), for which the activity, negative = inhibition result was “inactive”.

With `CP(=O)(Nc1ccc(Cl)cc1)Oc1ccc(F)cc1` (stereo not drawn), the activity, negative = inhibition result is “inactive”.

As for `COc1ccccc1OP(C)(=O)Nc1ccccc1Br` (stereo not drawn), the activity, negative = inhibition result is “inactive”.

Consider `CC(C)(C)c1ccc(OP(C)(=O)O)cc1`, for which the activity, negative = inhibition result was “inactive”.

`CP(=O)(OC12CC3CC(CC(C3)C1)C2)OC12CC3CC(CC(C3)C1)C2`: the activity, negative = inhibition result was “inactive”.

On to `CCOC(=O)c1ccc(NP(C)(=O)Oc2ccc(Cl)cc2)cc1` (stereo not drawn), for which the activity, negative = inhibition result was “inactive”.

Turning to `CC(C)OP(=O)(F)OC(C)C`, the activity, negative = inhibition result is “inactive”.

Consider `C/C1=C2N=C(/C=C3N=C(/C(C)=C4\[N-][C@@](C)([C@H]5N=C1[C@@](C)(CCC(=O)NC[C@H](C)OP(=O)([O-])O[C@@H]1[C@H](O)[C@H](n6cnc7cc(C)c(C)cc76)O[C@@H]1CO)[C@@H]5CC(N)=O)[C@](C)(CC(N)=O)[C@H]4CCC(N)=O)[C@@](C)(CC(N)=O)[C@@H]\3CCC(N)=O)C(C)(C)[C@@H]/2CCC(N)=O.[C-]#N.[Co+3]`, for which the activity, negative = inhibition result was “inactive”.

As to `COc1ccc(OP(C)(=O)Nc2cccc(Br)c2)cc1` (stereo not drawn), the activity, negative = inhibition result is “inactive”.

On to `COc1ccc(NP(C)(=O)Oc2ccccc2OC)cc1` (stereo not drawn), for which the activity, negative = inhibition result was “inactive”.

For the compound `CN(C)CCOC(=O)C(O)(c1ccccc1)C1CCCCC1` (stereo not drawn), the activity, negative = inhibition entry was “inactive”.

As for `Cc1cc(-c2cccc3ccccc23)c(C)cn1.O=[N+]([O-])c1cc([N+](=O)[O-])c(O)c([N+](=O)[O-])c1`, the activity, negative = inhibition entry is “inactive”.

For the compound `Cc1ccc([N+](=O)[O-])c([N+](=O)[O-])c1`, the activity, negative = inhibition entry is “inactive”.

Turning to `Cc1c([N+](=O)[O-])cccc1[N+](=O)[O-]`, the activity, negative = inhibition result is “inactive”.

Regarding `O=[N+]([O-])c1ccc(OP2(=O)COCCO2)cc1` (stereo not drawn), the activity, negative = inhibition result was “inactive”.

For `CP(=O)(Nc1ccc(SC(F)(F)F)cc1)Oc1ccc(F)cc1` (stereo not drawn), the activity, negative = inhibition result is “inactive”.

Consider `CCOP(=O)(CC)OCC`, for which the activity, negative = inhibition entry is “inactive”.

With `CCOP(C)(=S)SCC(=O)NC(C)(CC)C(=O)O` (stereo not drawn), the activity, negative = inhibition result is “inactive”.

Regarding `CP(=O)(Nc1ccc2c(c1)OCCO2)Oc1ccccc1` (stereo not drawn), the activity, negative = inhibition result was “inactive”.

In the case of `[NH4+].[O-][Cl+3]([O-])([O-])[O-]`, the activity, negative = inhibition result is “inactive”.

Turning to `CCN(CCCl)Cc1ccccc1C`, the activity, negative = inhibition entry was “inactive”.

In the case of `CP(=O)(Nc1ccccc1F)Oc1ccccc1` (stereo not drawn), the activity, negative = inhibition result was “inactive”.

`O=C(OCCN1CCN(CCOCc2ccccc2)CC1)C(O)(c1ccccc1)c1ccccc1`: the activity, negative = inhibition entry is “inactive”.

`Cc1cccc([N+](=O)[O-])c1[N+](=O)[O-]`: the activity, negative = inhibition result was “inactive”.

Take `CCC(C)(OO)OOC(C)(CC)OO` (stereo not drawn): the activity, negative = inhibition entry was “inactive”.

`COc1ccc(OP(C)(=O)Nc2ccc(SC(F)(F)F)cc2)cc1` (stereo not drawn): the activity, negative = inhibition result was “inactive”.

As to `CCOC(=O)c1ccc(NP(C)(=O)Oc2ccc(F)cc2)cc1` (stereo not drawn), the activity, negative = inhibition result was “inactive”.

On to `CCN(CC)CCCOC(=O)C(O)(c1ccccc1)C1CCCCC1` (stereo not drawn), for which the activity, negative = inhibition result is “inactive”.

Turning to `CP(=O)(Nc1ccccc1)Oc1ccc(F)cc1` (stereo not drawn), the activity, negative = inhibition result is “inactive”.

As for `O=[N+]([O-])c1cccc([N+](=O)[O-])c1`, the activity, negative = inhibition result is “inactive”.

In the case of `Cc1ccc([N+](=O)[O-])cc1[N+](=O)[O-]`, the activity, negative = inhibition result is “inactive”.

As for `O=[N+]([O-])OCC(CO[N+](=O)[O-])(CO[N+](=O)[O-])CO[N+](=O)[O-]`, the activity, negative = inhibition result was “inactive”.

For the compound `CC1=NCCc2c1[nH]c1ccccc21.O=[N+]([O-])c1cc([N+](=O)[O-])c(O)c([N+](=O)[O-])c1`, the activity, negative = inhibition entry was “inactive”.

For the compound `COc1ccccc1OP(C)(=O)Nc1cccc(Br)c1` (stereo not drawn), the activity, negative = inhibition result is “inactive”.

For `Cc1cc(C)cc(OP(C)(=O)Nc2ccc(C)cc2C)c1` (stereo not drawn), the activity, negative = inhibition result was “inactive”.

Take `CCOC(=O)c1ccc(NP(C)(=O)Oc2cc(C)cc(C)c2)cc1` (stereo not drawn): the activity, negative = inhibition result was “inactive”.

With `Cc1cc(C)cc(OP(C)(=O)Nc2ccccn2)c1` (stereo not drawn), the activity, negative = inhibition entry was “inactive”.

Regarding `CP(=O)(Nc1cccc(Br)c1)Oc1ccccc1` (stereo not drawn), the activity, negative = inhibition entry is “inactive”.

In the case of `Cc1ccc(C)c(NP(C)(=O)Oc2ccccc2)c1` (stereo not drawn), the activity, negative = inhibition entry was “inactive”.

For `O=[N+]([O-])c1cc([N+](=O)[O-])c(-n2nnc3ccccc32)c([N+](=O)[O-])c1`, the activity, negative = inhibition entry was “inactive”.

Consider `CC(C)N(CCCl)C(C)C`, for which the activity, negative = inhibition result is “inactive”.

As for `Cc1nc2ccc3ccccc3c2s1.O=[N+]([O-])c1cc([N+](=O)[O-])c(O)c([N+](=O)[O-])c1`, the activity, negative = inhibition entry was “inactive”.

Regarding `O=[N+]([O-])c1cc([N+](=O)[O-])c(Nc2nnnn2CCO)c([N+](=O)[O-])c1`, the activity, negative = inhibition result was “inactive”.

As for `COc1ccccc1OP(C)(=O)Nc1c(C)cccc1C` (stereo not drawn), the activity, negative = inhibition entry was “inactive”.

For `CN1CCCCC1COC(=O)C1(O)c2ccccc2CCc2ccccc21` (stereo not drawn), the activity, negative = inhibition result was “inactive”.

On to `CCCOc1ccc(NP(C)(=O)Oc2ccc(Cl)cc2)cc1` (stereo not drawn), for which the activity, negative = inhibition result was “inactive”.

As for `CP(=O)(Nc1ccc(SC(F)(F)F)cc1)Oc1ccccc1` (stereo not drawn), the activity, negative = inhibition entry was “inactive”.

As for `CP(=S)(Nn1cnnc1)Oc1ccccc1` (stereo not drawn), the activity, negative = inhibition result was “inactive”.

Take `COc1ccccc1OP(C)(=O)Nc1ccccc1` (stereo not drawn): the activity, negative = inhibition is inactive: -2.07% [at 10 µM].

For `CP(=O)(Nc1ccccc1Br)Oc1ccccc1` (stereo not drawn), the activity, negative = inhibition entry was “inactive”.

Consider `CP(=O)(Oc1ccccc1)OC(c1ccccc1)C(F)(F)F` (stereo not drawn), for which the activity, negative = inhibition entry is “inactive”.

On to `Cc1cccc(C)c1OP(C)(=O)Nc1ccc(SC(F)(F)F)cc1` (stereo not drawn), for which the Potency is active: 22.4 µM.

Consider `CP(=O)(Nc1ccc(SC(F)(F)F)cc1)Oc1ccc(Cl)cc1` (stereo not drawn), for which the activity, negative = inhibition entry is “inactive”.

For the compound `CP(=O)(NC(=O)Nc1ccccc1)Oc1ccccc1` (stereo not drawn), the activity, negative = inhibition entry was “inactive”.

As for `CCc1ccc(OP(C)(=O)N2CCN(c3ccc([N+](=O)[O-])cc3)CC2)cc1` (stereo not drawn), the activity, negative = inhibition entry is “inactive”.

Consider `CCOP(C)(=S)SCC(=O)NC(C)C(=O)O` (stereo not drawn), for which the activity, negative = inhibition entry is “inactive”.

On to `CN(C)CCS`, for which the activity, negative = inhibition result was “inactive”.

`CCOC(=O)c1ccc(NP(C)(=O)Oc2ccc(OC)cc2)cc1` (stereo not drawn): the activity, negative = inhibition result is “inactive”.

On to `CP(=O)(Nc1ccccn1)Oc1ccc(Cl)cc1` (stereo not drawn), for which the activity, negative = inhibition entry is “inactive”.

With `CCN(CC)CCCOC(=O)C(O)(c1ccccc1)c1ccccc1`, the activity, negative = inhibition result is “inactive”.

On to `O=[N+]([O-])[O-].[NH4+]`, for which the activity, negative = inhibition result is “inactive”.

As for `O=C(O)C1(O)c2ccccc2-c2ccccc21`, the activity, negative = inhibition result is “inactive”.

For `Cc1cccc(C)c1OP(C)(N)=O` (stereo not drawn), the activity, negative = inhibition entry is “inactive”.

Consider `O=C(O)C(O)(c1ccccc1)c1ccccc1`, for which the activity, negative = inhibition entry is “inactive”.

As to `O=[N+]([O-])c1ccc2c(c1)C=Nc1ccccc1O2`, the activity, negative = inhibition result is “inactive”.

Take `CCOC(=O)c1ccc(NP(C)(=O)Oc2ccccc2)cc1` (stereo not drawn): the activity, negative = inhibition result is “inactive”.

`Cc1ccc(NP(C)(=O)Oc2ccccc2)c(C)c1` (stereo not drawn): the activity, negative = inhibition entry was “inactive”.

Take `COc1ccccc1OP(C)(=O)Nc1ccc(C)cc1` (stereo not drawn): the activity, negative = inhibition entry is “inactive”.

As to `COc1ccc(OP(C)(=O)Nc2cccc(F)c2)cc1` (stereo not drawn), the activity, negative = inhibition entry was “inactive”.

With `COc1ccccc1OP(C)(=O)Nc1cc(Cl)ccc1C` (stereo not drawn), the activity, negative = inhibition entry was “inactive”.

On to `Cc1cc(C)cc(OP(C)(N)=O)c1` (stereo not drawn), for which the activity, negative = inhibition entry was “inactive”.
